According to patent US11633499B2, “Anti-TMEM-180 antibody, anticancer drug and cancer testing method” (NATIONAL CANCER CENTER JAPAN, priority 2016, dated 2023):

What was measured:
[1] = test system: normal tissues (skin, brain, small intestine, liver, heart, lung, kidney); test: Immune histochemistry of normal human tissues; assay type: binding; details: FIG. 13
Procedure: Next, the cancer-detection frequency by the antibodies was examined using various human tissue specimens which were obtained from those who had been diagnosed to have cancer. The paraffin sections were prepared from the tissue specimens in the same way as shown in Example 6 according to a routine procedure. The prepared sections were subjected to reactions with 1 μg/mL of one of the above antibodies. An HRP-labelled anti rat antibody was used as a secondary antibody, which emitted light with DAB. The observation was performed after hematoxylin staining. 1361 antibody-staining was negative in immune histochemistry of normal tissues from skin, brain, small intestine, liver, heart, lung and kidney.

wild type DLD-1 cells = test: ADCC activity (51Cr release, TK176V effector cells), wild type DLD-1; assay type: cell-based, human; details: ET ratio 40; 4 hours; 0.064 to 1,000 ng/mL; FIGS. 20A to 20D
Procedure: Specifically, TK176V (a natural killer cell line stably expressing FcγRIII) was used as an effector cell, which was obtained from Chemicals Evaluation and Research Institute, Japan. The wild type DLD-1 cell line was used as a target cell.
T1 76V was cultured in RPM11640 containing 10 ng/mL IL-2 and 10% FBS. For passages, the medium was diluted with a fresh medium every 2 to 3 days. In the passage, the cells were detached by a trypsin treatment and then suspended in a fresh medium to be plated on a dish every 2 to 3 days.
The measurement of the ADCC activity was performed as described below.
First, the amount of 51Cr release was measured when only the target cells were cultured in medium as a negative control, which is referred to as “Spontaneous release measurement”. The amount of 51 Cr release was measured when the all target cells were damaged by adding 0.1% TRITON™ (surfactant) X-100, which is referred to as “Max release measurement.”
1) Adding DLD-1 WT labelled with 50 μCi of ^51Cr to a U-bottom, 96 well plate at 5,000 cells/50 μL/well.
2) Adding TK176V at 200,000 cells/50 μL/well (ET ratio: 40): A medium was added at 50 μL/well to the well for Spontaneous release measurement and the well for Max release measurement. […]

[2] = test system: colon cancer tissue arrays; test: Staining of colon cancer tissue array (immunohistochemistry); assay type: binding; details: tissues D8, B7 and B5; FIG. 17
From the text: The colon cancer tissue arrays were purchased from BioChain Institute Inc. (Newark, Calif.) and used in the experiment. Each tissue array was stained according to the manufacturer's manual.

Wildtype DLD-1 cells = test: Internalization of the antibody; assay type: cell-based, human; details: 488-labelled antibody; 37° C.; 1, 3 or 6 hours; FIG. 25
Procedure: Wildtype DLD-1 cells were plated on a 96-well plate at 5,000 cells/well. The plate was incubated at 37° C. for 18 hours. After washing, a 488-labelled 669 antibody was added to the wells at 2 μL/well and was incubated at 37° C. for certain hours (1 hour, 3 hours, or 6 hours). After the wells were washed three times, a rabbit anti 488 antibody was added at 2 μL/well to stand still at 4° C. for 30 minutes to quench the fluorescence derived from the antibodies binding to the cell surface. After the wells were washed three times, 4% PFA was added at 100 μL/well to stand still at room temperature for 10 minutes. After the wells were washed three times, DAPI (1/500 dilution) was added to the wells at 100 μL/well to stand still at room temperature for 5 minutes. After the wells were washed three times, the wells were subjected to photographing or Array Scan analysis. An anti-EGFR antibody, Cetuximab (Erbitux) was used as a control.

cetuximab: anti-EGFR antibody, Cetuximab (Erbitux) [reference compound]
reactivity to normal skin tissues [1]: strong positive reaction
reactivity to normal skin tissues ([1]; listed as Cetuximab): strong reactivity
ADCC activity against wild type DLD-1 cells (wild type DLD-1 cells): strong ADCC activity
staining of colon cancer tissue array [2]: negative
internalization into cells (Wildtype DLD-1 cells): limited
